Experiments:
[1] = molecular target: CXCR4 (Homo sapiens, UniProt P61073); test: Calcium mobilization assay in MDA-MB-231 cells expressing CXCR4 alone; assay type: cell-based
[2] = molecular target: CXCR4-ADRB2 heteromer (Homo sapiens, UniProt P07550+P61073); test: Calcium mobilization assay, enhanced signaling of CXCR4-ADRB2 heteromer in MDA-MB-231 cells; conditions: stimulated with CXCL12 20 nM and Salmeterol 1 μM

Protein sequences, listed by entry. Tags and fused reporters are not part of them.
UniProt P61073, whole entry: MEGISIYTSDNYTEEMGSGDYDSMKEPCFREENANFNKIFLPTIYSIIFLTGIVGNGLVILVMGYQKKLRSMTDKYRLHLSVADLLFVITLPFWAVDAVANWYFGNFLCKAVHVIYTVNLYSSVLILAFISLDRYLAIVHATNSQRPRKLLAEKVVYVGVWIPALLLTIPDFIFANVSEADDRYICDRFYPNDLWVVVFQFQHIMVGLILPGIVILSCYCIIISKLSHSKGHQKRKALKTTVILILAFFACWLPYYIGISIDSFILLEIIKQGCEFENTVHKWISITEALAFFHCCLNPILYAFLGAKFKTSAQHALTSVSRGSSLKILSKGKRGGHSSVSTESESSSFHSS
UniProt P07550, whole entry: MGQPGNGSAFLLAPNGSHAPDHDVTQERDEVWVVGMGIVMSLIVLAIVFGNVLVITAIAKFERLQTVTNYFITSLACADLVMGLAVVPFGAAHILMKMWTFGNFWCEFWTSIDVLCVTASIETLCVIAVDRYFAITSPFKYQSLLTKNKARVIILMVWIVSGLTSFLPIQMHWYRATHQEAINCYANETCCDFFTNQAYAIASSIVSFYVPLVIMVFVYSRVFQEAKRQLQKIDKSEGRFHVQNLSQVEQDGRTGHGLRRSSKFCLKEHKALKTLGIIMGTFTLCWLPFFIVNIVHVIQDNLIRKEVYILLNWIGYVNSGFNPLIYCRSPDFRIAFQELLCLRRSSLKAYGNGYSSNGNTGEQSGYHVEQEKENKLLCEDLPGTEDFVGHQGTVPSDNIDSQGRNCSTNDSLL

For `NCCCCN(Cc1nc2ccccc2[nH]1)[C@H]1CCCc2cccnc21` [AMD070], which IC50 [1] is on record?
Its IC50 is 43.4 ± 0.57 nM.

And the IC50 ([2]; CXCR4 + ADRB2 (+Carvedilol) IC50 of Ca2+ response, co-treated with Carvedilol 10 μM)?
Its IC50 is 1.4 ± 2.2 nM.

And the IC50 ([2]; CXCR4 + ADRB2 (−Carvedilol) IC50 of Ca2+ response, CXCR4 inhibitor only)?
Its IC50 is 24.7 ± 8.88 nM.
